Our source for the IC50 values is ChEMBL document CHEMBL1129380, “Synthesis, activity, and molecular modeling of a new series of tricyclic pyridazinones as selective aldose reductase inhibitors” (J Med Chem, 1996).

As a reminder, the IC50 is the concentration at which inhibition is half-maximal. A high value points to a need for much substance.

Structures are written as SMILES.

In the test the target is Aldo-keto reductase family 1 member B1 (Bos taurus, UniProt P16116). Put plainly: Evaluated for inhibition of Aldose reductase 2. The procedure, abridged:
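Calf lens ALR2, partially purified by DE-52 (6.5 mU/mg), at 3.5 mU/mL. Assay at 37 °C with 4.7 mM D,L-glyceraldehyde and 0.11 mM NADPH in 0.25 M sodium phosphate, pH 6.8, with 0.38 M ammonium sulfate. Inhibitor in DMSO (1% final). A340 decrease corrected by a no-substrate blank.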

`COc1ccc2c(C(=S)N(C)CC(=O)O)cccc2c1C(F)(F)F` [TOLRESTAT] returned an IC50 of 96 nM.
